This test has as its system EGFR and cMET co-expressed tumor cell lines (A431, A549, MDA-MB-468, MKN-45, NCI-H441, NCI-H1975). Nature of the test: Binding activity of parent mAbs by flow cytometry. The settings on record: flow cytometry on tumor cell lines, FIGS. 1A-1F, Table 5; compared with zalutumumab (zalu) or cetuximab. Here is the method:
EGFR and cMET co-expressed tumor cell lines including A431 (ATCC® CRL-1555), A549 (ATCC® CCL-185, Provided by Procell), MDA-MB-468 (ATCC® HTB-132, Provided by Procell), MKN-45 (CL-0292, Provided by Procell), NCI-H441 (ATCC® HTB-174, Provided by COBIOER), NCI-H1975 (ATCC® CRL-5908, Provided by Procell) were selected for evaluating antibody binding activity by flow cytometry.
A431 was cultured with DMEM medium (Gibco, Cat #C11995500BT) containing 10% FBS. MDA-MB-468, MKN-45, NCI-H441 and NCI-H1975 were cultured with RPMI 1640 medium (Gibco, Cat #11875093) containing 10% FBS. A549 was cultured with F12K medium (Gibco, Cat #21127030) containing 10% FBS. Each antibody was incubated with different cell lines (1×10^5 cells/well) for 30 min in 0.2 mL FACS buffer (1×PBS with 0.1% BSA) at 4° C. After wash, cells were incubated with 100 μL PE-conjugated anti human Fc (Abcam, Ab98596, 1:500 dilution) for 30 min at 4° C. After wash with PBS, cells were resuspended in FACS buffer and analyzed by flow cytometer (Beckman, CytoFLEX).
On the technique in general: Flow cytometry measures light scatter and fluorescence of single cells or particles in a stream.

Regarding “Cetuximab: parent EGFR mAb; sequences in Table 2 [reference compound]”, the “binding activity / affinity of parent EGFR mAbs (summary)” value was “Strong affinity, chimeric, binding remains”.

These data come from patent US20250381289A1, “EGFR AND C-MET BISPECIFIC BINDING AGENTS, CONJUGATES THEREOF AND METHODS OF USING THE SAME” (GENMAB A/S, priority 2024, published 2025).
